# Values quoted from earlier work, collected in publication PMC8538783, “Green Oxidation of Amines by a Novel Cold-Adapted Monoamine Oxidase MAO P3 from Psychrophilic Fungi Pseudogymnoascus sp. P3” (Molecules, 2021).
# Tested on: MAO B
# Conditions: cited from earlier work
substance,measurement,value
deprenyl,low concentration that inhibits MAO B,10^−7 M
